Source: patent EP4840868A1, “NOVEL DISACCHARIDE LINKER, PREPARATION METHOD THEREFOR AND USE THEREOF” (dated 2026)

Protein sequences, listed by entry. Tags and fused reporters are not part of them. Residues count along the entry.
UniProt Q99Y92, 37-995 limits assumed: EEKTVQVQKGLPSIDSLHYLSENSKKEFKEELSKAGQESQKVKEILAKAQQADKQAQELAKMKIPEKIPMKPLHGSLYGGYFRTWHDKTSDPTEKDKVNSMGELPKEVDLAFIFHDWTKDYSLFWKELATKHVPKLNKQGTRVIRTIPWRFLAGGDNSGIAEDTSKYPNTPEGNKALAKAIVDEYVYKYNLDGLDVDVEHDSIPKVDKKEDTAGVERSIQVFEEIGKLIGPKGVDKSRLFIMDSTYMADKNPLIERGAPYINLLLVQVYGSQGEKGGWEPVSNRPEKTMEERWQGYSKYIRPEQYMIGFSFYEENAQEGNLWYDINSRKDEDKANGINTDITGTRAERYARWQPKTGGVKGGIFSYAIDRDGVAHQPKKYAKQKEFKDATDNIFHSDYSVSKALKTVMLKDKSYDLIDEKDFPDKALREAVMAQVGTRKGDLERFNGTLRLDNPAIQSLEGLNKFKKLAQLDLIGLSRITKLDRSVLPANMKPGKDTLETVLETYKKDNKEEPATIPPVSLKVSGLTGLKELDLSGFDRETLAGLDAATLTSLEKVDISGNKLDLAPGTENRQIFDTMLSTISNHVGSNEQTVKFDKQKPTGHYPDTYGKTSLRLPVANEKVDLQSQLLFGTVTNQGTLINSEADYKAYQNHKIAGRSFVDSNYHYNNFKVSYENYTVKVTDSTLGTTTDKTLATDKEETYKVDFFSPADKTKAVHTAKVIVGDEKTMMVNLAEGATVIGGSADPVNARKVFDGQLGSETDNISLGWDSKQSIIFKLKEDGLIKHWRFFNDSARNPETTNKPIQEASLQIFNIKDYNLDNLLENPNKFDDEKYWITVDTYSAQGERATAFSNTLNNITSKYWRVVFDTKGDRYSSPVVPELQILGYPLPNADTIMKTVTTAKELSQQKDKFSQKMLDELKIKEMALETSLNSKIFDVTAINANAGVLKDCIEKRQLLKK
UniProt T1WGN1, 38-843 limits assumed: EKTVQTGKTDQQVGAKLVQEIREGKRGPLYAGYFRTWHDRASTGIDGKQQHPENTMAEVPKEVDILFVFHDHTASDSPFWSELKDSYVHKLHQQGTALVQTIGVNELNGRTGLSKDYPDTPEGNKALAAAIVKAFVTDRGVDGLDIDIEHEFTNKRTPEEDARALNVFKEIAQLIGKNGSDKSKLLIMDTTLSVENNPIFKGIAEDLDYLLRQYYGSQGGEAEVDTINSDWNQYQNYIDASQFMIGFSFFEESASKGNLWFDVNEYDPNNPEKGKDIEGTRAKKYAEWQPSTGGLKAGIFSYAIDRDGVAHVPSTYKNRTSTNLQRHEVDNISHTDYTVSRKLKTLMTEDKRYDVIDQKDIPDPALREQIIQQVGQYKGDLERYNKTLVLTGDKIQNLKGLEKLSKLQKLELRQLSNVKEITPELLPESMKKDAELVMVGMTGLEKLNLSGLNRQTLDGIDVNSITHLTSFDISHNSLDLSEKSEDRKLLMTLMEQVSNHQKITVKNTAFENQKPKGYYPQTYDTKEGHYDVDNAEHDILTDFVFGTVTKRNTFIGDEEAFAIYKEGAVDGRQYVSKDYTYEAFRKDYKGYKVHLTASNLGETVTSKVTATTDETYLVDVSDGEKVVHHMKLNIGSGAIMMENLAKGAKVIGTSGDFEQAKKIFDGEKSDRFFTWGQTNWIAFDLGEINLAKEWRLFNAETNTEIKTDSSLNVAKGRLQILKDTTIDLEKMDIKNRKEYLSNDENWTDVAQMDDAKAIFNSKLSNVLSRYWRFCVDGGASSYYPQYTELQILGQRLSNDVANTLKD

Legend:
Test in all cases: Substrate specificity: transglycosylation of disaccharide linkers onto wild-type pertuzumab, LC-MS
Endo S = Endo S (Streptococcus pyogenes serotype M1, UniProt Q99Y92); conditions: Endo S 0.4 mg/mL; wild-type pertuzumab 10 mg/mL; linker 1.67 mM; pH 7.4, 25°C; after 6 hours
Endo S2 = Endo S2 (Streptococcus pyogenes serotype M49, UniProt T1WGN1); conditions: Endo S2 0.4 mg/mL; wild-type pertuzumab 10 mg/mL; linker 1.67 mM; pH 7.4, 25°C; after 6 hours
Endo Se2 = Endo Se2 0.4 mg/mL; wild-type pertuzumab 10 mg/mL; linker 1.67 mM; pH 7.4, 25°C; after 6 hours
Endo Si = Endo Si 0.4 mg/mL; wild-type pertuzumab 10 mg/mL; linker 1.67 mM; pH 7.4, 25°C; after 6 hours

## CC1=N[C@H]2[C@@H](O1)O[C@H](CN=[N+]=[N-])[C@@H](O[C@@H]1O[C@H](CNC(=O)CCOCCOCCOCCN=[N+]=[N-])[C@H](O)[C@H](O)[C@H]1O)[C@@H]2O
Endo S
  Transglycosylation efficiency (%): 24.1%
Endo S2
  Transglycosylation efficiency (%): 35.3%
Endo Se2
  Transglycosylation efficiency (%): >95%
Endo Si
  Transglycosylation efficiency (%): >95%

## [N-]=[N+]=NCC1=N[C@H]2[C@@H](O1)O[C@H](CO)[C@@H](O[C@@H]1O[C@H](CN=[N+]=[N-])[C@H](O)[C@H](O)[C@H]1O)[C@@H]2O
Endo S
  Transglycosylation efficiency (%): 0%
Endo S2
  Transglycosylation efficiency (%): 7.7%
Endo Se2
  Transglycosylation efficiency (%): >95%
Endo Si
  Transglycosylation efficiency (%): 68.2%

## [N-]=[N+]=NCC1=N[C@H]2[C@@H](O1)O[C@H](CN=[N+]=[N-])[C@@H](O[C@@H]1O[C@H](CN=[N+]=[N-])[C@H](O)[C@H](O)[C@H]1O)[C@@H]2O
Endo S
  Transglycosylation efficiency (%): 6.6%
Endo S2
  Transglycosylation efficiency (%): 7.8%
Endo Se2
  Transglycosylation efficiency (%): 80.1%
Endo Si
  Transglycosylation efficiency (%): >95%

## [N-]=[N+]=NCC1=N[C@H]2[C@@H](O1)O[C@H](CO)[C@@H](O[C@@H]1O[C@H](CO)[C@@H](O)[C@H](O)[C@@H]1O)[C@@H]2O
Endo S
  Transglycosylation efficiency (%): 56.7%
Endo S2
  Transglycosylation efficiency (%): 89.8%
Endo Se2
  Transglycosylation efficiency (%): 89%
Endo Si
  Transglycosylation efficiency (%): 77.7%

## CC1=N[C@H]2[C@@H](O1)O[C@H](CO)[C@@H](S[C@@H]1O[C@H](C=NOCCNC(=O)CCC(=O)N3Cc4ccccc4C#Cc4ccccc43)[C@H](O)[C@H](O)[C@H]1O)[C@@H]2O
Endo S
  Transglycosylation efficiency (%): 7.6%
Endo S2
  Transglycosylation efficiency (%): 4.7%
Endo Se2
  Transglycosylation efficiency (%): 36.3%
Endo Si
  Transglycosylation efficiency (%): >95%

## CCC1=N[C@H]2[C@@H](O1)O[C@H](CO)[C@@H](O[C@@H]1O[C@H](C=NOCCN=[N+]=[N-])[C@H](O)[C@H](O)[C@H]1O)[C@@H]2O
Endo S
  Transglycosylation efficiency (%): 81.4%
Endo S2
  Transglycosylation efficiency (%): >95%
Endo Se2
  Transglycosylation efficiency (%): 80.1%
Endo Si
  Transglycosylation efficiency (%): >95%

## [N-]=[N+]=NCCOCCOCCOCCC(=O)NC[C@H]1O[C@@H](O[C@H]2[C@H](O)[C@H]3N=C(CN=[N+]=[N-])O[C@H]3O[C@@H]2CO)[C@H](O)[C@@H](O)[C@H]1O
Endo S
  Transglycosylation efficiency (%): 11.7%
Endo S2
  Transglycosylation efficiency (%): 29.9%
Endo Se2
  Transglycosylation efficiency (%): 88.4%
Endo Si
  Transglycosylation efficiency (%): 60.8%

## CCC1=N[C@H]2[C@@H](O1)O[C@H](CO)[C@@H](O[C@@H]1O[C@H](CN=[N+]=[N-])[C@H](O)[C@H](O)[C@H]1O)[C@@H]2O
Endo S
  Transglycosylation efficiency (%): 33.2%
Endo S2
  Transglycosylation efficiency (%): 79.9%
Endo Se2
  Transglycosylation efficiency (%): >95%
Endo Si
  Transglycosylation efficiency (%): >95%

## C#CC[C@H]1O[C@@H]2OC(C)=N[C@@H]2[C@@H](O)[C@@H]1O[C@@H]1O[C@H](CO)[C@H](O)[C@H](O)[C@H]1O
Endo S
  Transglycosylation efficiency (%): 24%
Endo S2
  Transglycosylation efficiency (%): 30%
Endo Se2
  Transglycosylation efficiency (%): 94.8%
Endo Si
  Transglycosylation efficiency (%): >95%

## CC1=N[C@H]2[C@@H](O1)O[C@H](CN=[N+]=[N-])[C@@H](O[C@@H]1O[C@H](CN=[N+]=[N-])[C@H](O)[C@H](O)[C@H]1O)[C@@H]2O
Endo S
  Transglycosylation efficiency (%): 10.8%
Endo S2
  Transglycosylation efficiency (%): 25%
Endo Se2
  Transglycosylation efficiency (%): >95%
Endo Si
  Transglycosylation efficiency (%): >95%

## [N-]=[N+]=NCC(=O)N[C@H]1[C@H](O[C@H]2[C@H](O)[C@H]3N=C(CN=[N+]=[N-])O[C@H]3O[C@@H]2CO)O[C@H](CO)[C@@H](O)[C@@H]1O
Endo S
  Transglycosylation efficiency (%): 14.8%
Endo S2
  Transglycosylation efficiency (%): 14.0%
Endo Se2
  Transglycosylation efficiency (%): 14.9%
Endo Si
  Transglycosylation efficiency (%): 21.1%

## [N-]=[N+]=NCC1=N[C@H]2[C@@H](O1)O[C@H](CO)[C@@H](O[C@@H]1O[C@H](CO)[C@@H](O)[C@H](O)[C@H]1O)[C@@H]2O
Endo S
  Transglycosylation efficiency (%): 29.4%
Endo S2
  Transglycosylation efficiency (%): 72.6%
Endo Se2
  Transglycosylation efficiency (%): >95%
Endo Si
  Transglycosylation efficiency (%): >95%

## CC1=N[C@H]2[C@@H](O1)O[C@H](CN=[N+]=[N-])[C@@H](O[C@@H]1O[C@H](CNC(=O)Cc3ccc(-c4nnc(C)nn4)cc3)[C@H](O)[C@H](O)[C@H]1O)[C@@H]2O
Endo S
  Transglycosylation efficiency (%): 20.9%
Endo S2
  Transglycosylation efficiency (%): 23.5%
Endo Se2
  Transglycosylation efficiency (%): 34.1%
Endo Si
  Transglycosylation efficiency (%): >95%

## CCC1=N[C@H]2[C@@H](O1)O[C@H](CN=[N+]=[N-])[C@@H](O[C@@H]1O[C@H](CNC(=O)Cc3ccc(-c4nnc(C)nn4)cc3)[C@H](O)[C@H](O)[C@H]1O)[C@@H]2O
Endo S
  Transglycosylation efficiency (%): 9.7%
Endo S2
  Transglycosylation efficiency (%): 13.1%
Endo Se2
  Transglycosylation efficiency (%): 59.4%
Endo Si
  Transglycosylation efficiency (%): >95%

## CC1=N[C@H]2[C@@H](O1)O[C@H](CN=[N+]=[N-])[C@@H](O[C@@H]1O[C@H](CNC(=O)c3ccc(-c4nnc(C)nn4)cc3)[C@H](O)[C@H](O)[C@H]1O)[C@@H]2O
Endo S
  Transglycosylation efficiency (%): 5.1%
Endo S2
  Transglycosylation efficiency (%): 6.7%
Endo Se2
  Transglycosylation efficiency (%): 17.7%
Endo Si
  Transglycosylation efficiency (%): 60.7%

## [N-]=[N+]=NCC(=O)N[C@H]1[C@H](O[C@H]2[C@H](O)[C@H]3N=C(CN=[N+]=[N-])O[C@H]3O[C@@H]2CO)O[C@H](CO)[C@H](O)[C@@H]1O
Endo S
  Transglycosylation efficiency (%): 15.9%
Endo S2
  Transglycosylation efficiency (%): 23.6%
Endo Se2
  Transglycosylation efficiency (%): 22.5%
Endo Si
  Transglycosylation efficiency (%): 21.2%

## CC1=N[C@H]2[C@@H](O1)O[C@H](CNC(=O)CCC(=O)N1Cc3ccccc3C#Cc3ccccc31)[C@@H](O[C@@H]1O[C@H](CO)[C@H](O)[C@H](O)[C@H]1O)[C@@H]2O
Endo S
  Transglycosylation efficiency (%): 17.4%
Endo S2
  Transglycosylation efficiency (%): 8.1%
Endo Se2
  Transglycosylation efficiency (%): 13.1%
Endo Si
  Transglycosylation efficiency (%): 10.1%

## [N-]=[N+]=NCC1=N[C@H]2[C@@H](O1)O[C@H](CN=[N+]=[N-])[C@@H](O[C@@H]1O[C@H](CO)[C@H](O)[C@H](O)[C@H]1O)[C@@H]2O
Endo S
  Transglycosylation efficiency (%): 2.6%
Endo S2
  Transglycosylation efficiency (%): 6.0%
Endo Se2
  Transglycosylation efficiency (%): 56.7%
Endo Si
  Transglycosylation efficiency (%): 93.7%

## CC1=N[C@H]2[C@@H](O1)O[C@H](CO)[C@@H](S[C@@H]1O[C@H](CNC(=O)Cc3ccc(-c4nnc(C)nn4)cc3)[C@H](O)[C@H](O)[C@H]1O)[C@@H]2O
Endo S
  Transglycosylation efficiency (%): 5.8%
Endo S2
  Transglycosylation efficiency (%): 10.2%
Endo Se2
  Transglycosylation efficiency (%): 34.4%
Endo Si
  Transglycosylation efficiency (%): >95%

## [N-]=[N+]=NCCC1=N[C@H]2[C@@H](O1)O[C@H](CO)[C@@H](O[C@@H]1O[C@H](CO)[C@H](O)[C@H](O)[C@H]1O)[C@@H]2O
Endo S
  Transglycosylation efficiency (%): 0%
Endo S2
  Transglycosylation efficiency (%): 6.9%
Endo Se2
  Transglycosylation efficiency (%): 75.3%
Endo Si
  Transglycosylation efficiency (%): 51.8%

## CCCC1=N[C@H]2[C@@H](O1)O[C@H](CO)[C@@H](O[C@@H]1O[C@H](C=NOCCN=[N+]=[N-])[C@H](O)[C@H](O)[C@H]1O)[C@@H]2O
Endo S
  Transglycosylation efficiency (%): 11.0%
Endo S2
  Transglycosylation efficiency (%): 11.7%
Endo Se2
  Transglycosylation efficiency (%): 94.2%
Endo Si
  Transglycosylation efficiency (%): 51.3%

## CC1=N[C@H]2[C@@H](O1)O[C@H](CO)[C@@H](S[C@@H]1O[C@H](C=NOCC(=O)NC(CCC(=O)NCCCN=[N+]=[N-])C(=O)NCCCN=[N+]=[N-])[C@H](O)[C@H](O)[C@H]1O)[C@@H]2O (stereo partly drawn)
Endo S
  Transglycosylation efficiency (%): 13.6%
Endo S2
  Transglycosylation efficiency (%): 55%
Endo Se2
  Transglycosylation efficiency (%): 94.9%
Endo Si
  Transglycosylation efficiency (%): >95%

## C#C[C@H]1O[C@@H]2OC(C)=N[C@@H]2[C@@H](O)[C@@H]1O[C@@H]1O[C@H](CO)[C@H](O)[C@H](O)[C@H]1O
Endo S
  Transglycosylation efficiency (%): 17.8%
Endo S2
  Transglycosylation efficiency (%): 13.9%
Endo Se2
  Transglycosylation efficiency (%): 16.1%
Endo Si
  Transglycosylation efficiency (%): 38.4%

## [N-]=[N+]=NCC1=N[C@H]2[C@@H](O1)O[C@H](CO)[C@@H](O[C@@H]1O[C@H](CO)[C@H](O)[C@H](O)[C@H]1O)[C@@H]2O
Endo S
  Transglycosylation efficiency (%): 13%
Endo S2
  Transglycosylation efficiency (%): 36.3%
Endo Se2
  Transglycosylation efficiency (%): 76.3%
Endo Si
  Transglycosylation efficiency (%): 90.6%
